T1: mouse TREM1 on CHO cells (mouse, UniProt Q9JKE2 21-230)
T1 construct: also called CHO-mT1
T1 sequence: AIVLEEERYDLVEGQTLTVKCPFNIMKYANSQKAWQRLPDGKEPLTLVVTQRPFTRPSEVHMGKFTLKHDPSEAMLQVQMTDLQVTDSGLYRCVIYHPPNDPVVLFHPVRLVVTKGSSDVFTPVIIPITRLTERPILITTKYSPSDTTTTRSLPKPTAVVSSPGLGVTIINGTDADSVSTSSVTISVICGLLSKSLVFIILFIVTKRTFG

By UniProt entry, the sequences of proteins in these tests, tags left out. Chains listed by the source or under a name are the forms on record and can include a tag or linker. Residues count along the entry.
UniProt Q9NP99, 21-234: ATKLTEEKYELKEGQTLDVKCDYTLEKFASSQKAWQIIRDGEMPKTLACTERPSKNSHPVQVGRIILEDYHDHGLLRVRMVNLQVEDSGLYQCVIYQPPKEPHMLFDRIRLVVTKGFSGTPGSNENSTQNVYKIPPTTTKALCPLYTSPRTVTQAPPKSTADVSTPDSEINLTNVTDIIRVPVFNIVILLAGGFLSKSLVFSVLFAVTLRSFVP
UniProt Q9NP99, 21-205 limits assumed, form in doubt: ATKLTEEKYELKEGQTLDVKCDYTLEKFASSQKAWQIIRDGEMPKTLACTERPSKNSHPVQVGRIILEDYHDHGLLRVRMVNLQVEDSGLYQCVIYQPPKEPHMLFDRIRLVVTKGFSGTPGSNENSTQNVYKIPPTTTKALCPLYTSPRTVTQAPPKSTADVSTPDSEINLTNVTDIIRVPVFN

T2: mouse TREM2 on BWZ cells (mouse, UniProt Q99NH8 19-227)
T2 construct: whole, on cells; also called BWZ Mouse TREM2
T2 sequence (looked up): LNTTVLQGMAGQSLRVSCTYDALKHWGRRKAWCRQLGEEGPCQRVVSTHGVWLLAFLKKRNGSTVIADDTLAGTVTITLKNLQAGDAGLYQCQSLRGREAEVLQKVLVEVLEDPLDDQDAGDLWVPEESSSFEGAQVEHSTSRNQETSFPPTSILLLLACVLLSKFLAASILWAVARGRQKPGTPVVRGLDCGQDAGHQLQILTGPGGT

T3: human TREM2 on BWZ cells (human, UniProt Q9NZC2 19-230)
T3 construct: whole, on cells; not tied to the cell line; also called BWZ Human TREM2
T3 sequence (looked up): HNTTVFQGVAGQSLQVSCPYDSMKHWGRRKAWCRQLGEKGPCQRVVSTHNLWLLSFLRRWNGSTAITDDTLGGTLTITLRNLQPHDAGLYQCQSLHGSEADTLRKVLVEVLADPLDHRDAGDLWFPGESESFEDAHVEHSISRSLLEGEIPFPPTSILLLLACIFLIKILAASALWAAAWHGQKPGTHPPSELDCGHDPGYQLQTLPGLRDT


How the values were obtained:
human TREM1 on cells [1] = biological target: T4, human TREM1 on cells (human, UniProt Q9NP99 21-234); test: FACS, CHO human TREM1
T4 construct: Some reporter cells carry a human TREM1/CD3 zeta fusion instead; also called CHO-huT1; CHO-hT1

human TREM1 on cells [2] = biological target: T4, human TREM1 on cells; test: FACS, human neutrophils
mouse TREM1 on CHO cells = biological target: T1, mouse TREM1 on CHO cells; test: FACS, CHO mouse TREM1
mouse TREM2 on BWZ cells = biological target: T2, mouse TREM2 on BWZ cells; test: FACS, BWZ mouse TREM2
human TREM2 on BWZ cells = biological target: T3, human TREM2 on BWZ cells; test: FACS, BWZ human TREM2
human TREM1 = human TREM1 (human, UniProt Q9NP99 21-205, limits assumed); test: IgG, monovalent; method and antigen form not stated

Binder	FOB Fold Over Background (human TREM1 on cells [1]) [fold]	FOB Fold Over Background (human TREM1 on cells [2]) [fold]	FOB Fold Over Background (mouse TREM1 on CHO cells) [fold]	FOB Fold Over Background (mouse TREM2 on BWZ cells) [fold]	FOB Fold Over Background (human TREM2 on BWZ cells) [fold]	Kd (human TREM1) [nM]	koff (human TREM1) [s⁻¹]	kon (human TREM1) [M⁻¹ s⁻¹]
T1-14 (antibody, IgG1, V domains shown, huIgG1; also called TI-14; ADI-19081) VH: QVQLVESGGGVVQPGRSLRLSCAASGFTFSSYGMHWVRQAPGKGLEWVAVISYDGSNKYYADSVKGRFTISRDNSKNTLYLQMNSLRAEDTAVYYCARRSSGDYLDVWGQGTMVTVSS VL: not shown	418	2.3	0.8	1.4	0.7	–	–	–
T1-9 (antibody, IgG1, V domains shown, huIgG1; also called TI-9; ADI-19076) VH: QVQLVQSGAEVKKPGASVKVSCKASGYTFTSYYMHWVRQAPGQGLEWMGIINPSGGSTSYAQKFQGRVTMTRDTSTSTVYMELSSLRSEDTAVYYCAREAGYDISSAFDIWGQGTMVTVSS VL: not shown	312	1.7	0.7	1.5	0.7	110	0.00856	78100
T1-6 (antibody, IgG1, V domains shown, huIgG1; also called TI-6; ADI-19072) VH: QVQLVQSGAEVKKPGASVKVSCKASGYTFTSYYMHWVRQAPGQGLEWMGVINPSGGSTSYAQKFQGRVTMTRDTSTSTVYMELSSLRSEDTAVYYCARESGHSYVSSFDPWGQGTLVTVSS VL: not shown	409	2.7	0.4	0.7	0.4	203	0.0168	82800
T1-17 (antibody, IgG1, V domains shown, huIgG1; also called TI-17; ADI-19084) VH: QVQLQESGPGLVKPSETLSLTCTVSGGSISSYYWSWIRQPPGKGLEWIGSIYYSGSTNYNPSLKSRVTISVDTSKNQFSLKLSSVTAADTAVYYCARGAPGGRHNWFDPWGQGTLVTVSS VL: DIQMTQSPSSLSASVGDRVTITCQASQDISNYLNWYQQKPGKAPKLLIYDASNLATGVPSRFSGSGSGTDFTFTISSLQPEDIATYYCQQSDIHPRTFGGGTKVEIK	264	1.3	0.7	1.2	0.7	–	–	–
T1-11 (antibody, IgG1, V domains shown, huIgG1; also called TI-11; ADI-19078) VH: QLQLQESGPGLVKPSETLSLTCTVSGGSISSSSYYWGWIRQPPGKGLEWIGSIYYSGSTYYNPSLKSRVTISVDTSKNQFSLKLSSVTAADTAVYYCARSGEYGFDLWGRGTLVTVSS VL: not shown	414	2.3	0.7	1.1	0.7	–	–	–
T1-8 (antibody, IgG1, V domains shown, huIgG1; also called TI-8; ADI-19074) VH: QVQLVQSGAEVKKPGASVKVSCKASGYTFTSYYMHWVRQAPGQGLEWMGIINPSGGSTSYAQKFQGRVTMTRDTSTSTVYMELSSLRSEDTAVYYCAREVSMTAASLDVWGQGTMVTVSS VL: not shown	455	1.6	0.7	1.2	1.9	177	0.0142	80400
T1-10 (antibody, IgG1, V domains shown, huIgG1; also called TI-10; ADI-19077) VH: QVQLVQSGAEVKKPGASVKVSCKASGYTFTSYYMHWVRQAPGQGLEWMGIINPSGGSTSYAQKFQGRVTMTRDTSTSTVYMELSSLRSEDTAVYYCAREGSGSWETLDVWGQGTMVTVSS VL: not shown	526	2.9	0.8	1	0.9	8.45	0.000663	78500

More lines, now with the values ahead:

FOB Fold Over Background (human TREM1 on cells [1]) [fold]	FOB Fold Over Background (human TREM1 on cells [2]) [fold]	FOB Fold Over Background (mouse TREM1 on CHO cells) [fold]	FOB Fold Over Background (mouse TREM2 on BWZ cells) [fold]	FOB Fold Over Background (human TREM2 on BWZ cells) [fold]	Kd (human TREM1) [nM]	koff (human TREM1) [s⁻¹]	kon (human TREM1) [M⁻¹ s⁻¹]	Binder
459	2.3	–	1.2	0.9	19.1	0.00156	81600	T1-53 (antibody, IgG1, V domains shown, huIgG1; also called TI-53; ADI-19128) VH: QVQLVQSGAEVKKPGASVKVSCKASGYTFTSYYIHWVRQAPGQGLEWMGIINPSGGSTSYAQKFQGRVTMTRDTSTSTVYMELSSLRSEDTAVYYCARESGYHVSTAFDIWGQGTMVTVSS VL: not shown
388	2.1	22.9	0.8	0.5	57.1	0.00556	97300	T1-38 (antibody, IgG1, V domains shown, huIgG1; also called TI-38; ADI-19112) VH: QVQLVESGGGVVQPGRSLRLSCAASGLTFSSYGMHWVRQAPGKGLEWVAVISYDGSNKYYADSVKGRFTISRDNSKNTLYLQMNSLRAEDTAVYYCARERGTYYYASGWANWGQGTLVTVSS VL: not shown
456	2.3	7.6	1.5	0.9	12.2	0.001	82500	T1-43 (antibody, IgG1, V domains shown, huIgG1; also called TI-43; ADI-19117) VH: QVQLVQSGAEVKKPGASVKVSCKASGYTFTSYYMHWVRQAPGQGLEWMGIINPSGGSTSYAQKFQGRVTMTRDTSTSTVYMELSSLRSEDTAVYYCAREAGNYYDIESAFDIWGQGTMVTVSS VL: not shown
323	2.2	39.2	0.9	0.7	57.3	0.0164	285000	T1-37 (antibody, IgG1, V domains shown, huIgG1; also called TI-37; ADI-19111) VH: QVQLVESGGGVVQPGRSLRLSCAASGFTFSSYGMHWVRQAPGKGLEWVALIWYDGSNKYYADSVKGRFTISRDNSKNTLYLQMNSLRAEDTAVYYCAKGDYLDPLFDYWGQGTLVTVSS VL: EIVMTQSPATLSVSPGERATLSCRASQSVSSNLAWYQQKPGQAPRLLIYGASTRATGIPARFSGSGSGTEFTLTISSLQSEDFAVYYCQQYAYWPLTFGGGTKVEIK
441	2.4	54.3	1.2	0.8	49.7	0.0111	224000	T1-39 (antibody, IgG1, V domains shown, huIgG1; also called TI-39; ADI-19113) VH: EVQLVESGGGLVKPGGSLRLSCAASGFTFSSYSMNWVRQAPGKGLEWVSSISSSSNYIYYADSVKGRFTISRDNAKNSLYLQMNSLRAEDTAVYYCARRGGSSSTGLLYWGQGTLVTVSS VL: DIQLTQSPSSVSASVGDRVTITCRASQDISSWLAWYQQKPGKAPKLLIYAASSLQSGVPSRFSGSGSGTDFTLTISSLQPEDFATYYCQQSLTHPTFGGGTKVEIK
457	2	0.8	0.9	0.5	–	–	–	T1-18 (antibody, IgG1, V domains shown, huIgG1; also called TI-18; ADI-19085) VH: EVQLVESGGGLVQPGRSLRLSCAASGFTFDDYAMHWVRQAPGKGLEWVSGISWNSGDIGYADSVKGRFTISRDNAKNTLYLQMNSLRAEDTALYYCAKGPRMVTHLDVWGQGTMVTVSS VL: DIQMTQSPSTLSASVGDRVTITCRASQSISSWLAWYQQKPGKAPKLLIYKASSLESGVPSRFSGSGSGTEFTLTISSLQPDDFATYYCQQDSIYPITFGGGTKVEIK
